The values below come from ChEMBL document CHEMBL6182942, “Discovery of a Selective, Novel TGF-βR1 Inhibitor GFH018 for the Treatment of Solid Tumors” (J Med Chem, 2025).

Each structure is given as a SMILES string. Some results are limits rather than exact numbers.

One data set is filed under the species Homo sapiens. Briefly: Selectivity ratio of IC50 for p38alpha (unknown origin) to IC50 for TGFbetaR1 (unknown origin).
The subject of a further data set is NIH3T3. Briefly: Antiproliferative activity against mouse NIH/3T3 cells by celltitter-glo assay. Format: functional, cell-based.
For another data set, the system named is MDR1. The data set can be described thus: Efflux ratio of apparent permeability in dog MDCK-MDR1 cells at 2 uM measured over 150 mins by LC-MS/MS analysis. The class given is ADME, cell-based, Canis lupus familiaris.

As to `Cc1cccc(-c2nn3c(c2-c2ccc4ncnn4c2/C=C/C(N)=O)CCC3)n1`, the Ratio IC50 in the data set filed under Homo sapiens amounted to 66.2.

Regarding `CCOC(=O)/C=C/c1c(-c2c(-c3cccc(C)n3)nn3c2CCC3)ccc2ncnn12`, the Ratio IC50 in the data set listed under Homo sapiens came to 18.2. In the data set with NIH3T3, the midpoint of inhibition, the IC50, lay at 1.82 µM. In the data set with MDR1, the efflux ratio at 2.5 h, 2 µM stood at 0.54.

Consider `Cc1cccc(-c2nn3c(c2-c2ccc4ncnn4c2/C=C/C(C)(C)O)CCC3)n1`, for which the Ratio IC50 in the data set listed under Homo sapiens was above 120.

Consider `Cc1cccc(-c2nn(Cc3cccc(C(F)F)c3)cc2-c2ccc3ncnn3c2/C=C/C(N)=O)n1`, for which the Ratio IC50 in the data set filed under Homo sapiens was 12.5.

For orientation: IC50 means the concentration at which inhibition is half-maximal. A low value points to greater potency in that assay. By efflux ratio is commonly meant a quotient of directional permeabilities that is used to spot active efflux.
